Measurements: patent publication US8852559B2 (Colgate-Palmolive Company, priority 2009, dated 2014)

Test system: A. viscosus
Experiment: Inhibition of growth of A. viscosus
Conditions: dentifrice at increased pH

Cc1ccc([B-]2(c3ccc(C)c(Cl)c3)OC(=O)c3ncccc3[OH+]2)cc1Cl [Compound 1]
antibacterial effect as measured by growth inhibition of A. viscosus: comparable to that of the pH 7 paste as well as commercial high quality toothpaste
